Experimental data: ChEMBL document CHEMBL2021912, “Synthesis, cytotoxicity and apoptosis of cyclotriphosphazene compounds as anti-cancer agents” (Eur J Med Chem, 2012)

Key:
[1] = test system: Vero; experiment: Cytotoxicity against african green monkey Vero cells after 24 hrs at 37 degC by MTT assay; format: cell-based; details: for CC50: read-out: ID50, chlorocebus sabaeus
[2] = test system: HT-29; experiment: Cytotoxicity against human HT-29 cells after 24 hrs at 37 degC by MTT assay; format: functional; details: read-out: ID50
In short: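 Vero and HT-29 grown in DMEM/10% FBS, Hep2 in EMEM/10% FBS; seeded at 2 × 10^4 (Vero, Hep2) or 3 × 10^4 (HT-29) cells/mL; exposed 24 h to 0.2–50 µg/mL compound, final DMSO 1%; MTT 1 mg/mL 2 h at 37 °C, formazan in DMSO, OD 540 nm; % of DMSO control; ID50 by probit; triplicate wells, three repeats.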

FC1(F)COP2(=NP(Cl)(Cl)=NP(Cl)(Cl)=N2)OCC1(F)F was tested, and the CC50 [1] was 3.55 µM.

With ClP1(Cl)=NP(Cl)(Cl)=NP(Sc2ccccc2)(Sc2ccccc2)=N1 the CC50 [1] was 3.02 µM.

With ClP1(Cl)=NP(Cl)(Cl)=NP(Nc2ccccc2)(Nc2ccccc2)=N1 the ID50 ([1]; chlorocebus sabaeus) was “Non-toxic”.

CC1(C)COP2(=NP(Cl)(Cl)=NP(Cl)(Cl)=N2)OC1 was tested, and the CC50 [1] was 2.96 µM.

In the case of ClP1(Cl)=NP(Cl)(Cl)=NP(Cl)(Cl)=N1, the CC50 [1] is reported as 3.16 µM and the IC50 [2] is reported as 7.14 µM.

Compound FC1(F)COP2(Cl)=NP(Cl)(Cl)=NP(Cl)(=N2)OCC1(F)F (configuration not stated) has a CC50 [1] of 5.84 µM.
